Results from US20030162783A1 (priority 1999, published 2003).

System: Chronic Constriction Injury (CCI) rats, thermal hyperalgesia
Assay: Test C: Neuropathic pain model (Chronic Constriction Injury), thermal hyperalgesia paw-withdrawal
Format: in vivo
Settings: Rattus norvegicus, po
Source text: Test C: Neuropathic Pain Model (Chronic Constriction Injury):
(Mean of vehicle group−Mean of compound group)/(Mean of vehicle group)×100

In the case of `O=c1c2ccc(Cl)cc2[nH]c2c(O)nn(Cc3ccoc3)c(=O)c12` [Ex. 10, 7-Chloro-4-hydroxy-2-(furan-3-ylmethyl)-1,2,5,10-tetrahydropyridazino[4,5-b]quinoline-1,10-dione], the minimal effective dose (120 h, read-out: Test C MED (minimum effective dose)) is reported as 30 mg/kg/day and the inhibition in vivo at 30 mg/kg/day (read-out: Test C (% Inh.): percent decrease in hyperalgesia at the MED) is reported as 41%.
